From patent US8957029 (MAX PLANCK GESELLSCHAFT ZUR FORDERUNG DER WISSENSCHAFTEN E V, dated 2015)

Experiments:
[1] = biological target: pyrene-labelled actin (UniProt P68135 3-377); test: fluorescence quenching of pyrene-labelled G-actin as a function of peptide concentration, hyperbolic fit
[2] = biological target: rabbit muscle F-actin (rabbit, UniProt P68135 3-377); test: F-actin co-sedimentation, peptide fluorescence in pellet over total, hyperbolic fit
Method: Polymerization of actin was induced by addition of 0.1 volume 10×KMEI buffer (50 mM KCl, 1 mM MgCl_2, 1 mM EGTA, 10 mM imidazole HCl, pH 7.0) and incubation for >1 h at room temperature (RT). 44 µM of F— Lifeact was incubated 30 min with F-actin and then spun 30 min at 350,000×g at room temperature. The supernatant was removed and the pellet resuspended in 100 µl of 1×KMEI buffer. The amount of peptide was measured in a Cary Eclipse Fluorescence Spectrophotometer with excitation/emission set for FITC at 495 nm/520 nm. The bound/total ratio was calculated as the signal from the pellet divided by the total signal. The K_d was obtained by fitting to a hyperbolic curve.
An effective probe for actin should have no or very little influence on the dynamics of actin polymerization and depolymerization. We therefore tested the properties of F-Lifeact in in vitro assays for actin dynamics. To determine the affinity of Lifeact to filamentous actin we performed an F-actin co-sedimentation assay. The amounts of peptide in the pellet and in the supernatant were measured spectroscopically. F-Lifeact bound to muscle actin with a dissociation constant (K_d) of 3.1±0.7 µM (mean±95% CI, n=3, FIG. 2a). The K_d for non-muscle actin was 5.4±2.6 µM. […] We also determined whether F-Lifeact binds to G-actin by monitoring fluorescence quenching of pyrene-labelled actin as a function of peptide concentration.

B1: F-Lifeact (chemically synthesized 17aa Lifeact peptide tagged with fluorescein at its N-terminus) (peptide)
peptide: MGVADLIKKFESISKEE
modifications: fluorescein (FITC) at the N-terminus
notes: also called fluorescein conjugated Lifeact; F-Lifeact peptide
Kd [1]: 3 µM | Kd [2]: 3.1 µM
